The values that follow are results of earlier work, collected in publication PMC6796870, “A two-step lineage reprogramming strategy to generate functionally competent human hepatocytes from fibroblasts” (Cell Research, 2019).

The conditions of the series: Table S9; ref 1,2 (Chen, M. et al. 2011); cited from earlier work.

With Maraviroc, the Label entry is “DILI concern by FDA”.
